Experimental data taken from patent US8541572B2.
Like-named read-outs stand apart in the source and are kept apart here.

Sequences of proteins named here, by UniProt entry; tags and fusion partners are left off. Residues count along the entry.
UniProt P78536, 215-477 S266A/N452Q: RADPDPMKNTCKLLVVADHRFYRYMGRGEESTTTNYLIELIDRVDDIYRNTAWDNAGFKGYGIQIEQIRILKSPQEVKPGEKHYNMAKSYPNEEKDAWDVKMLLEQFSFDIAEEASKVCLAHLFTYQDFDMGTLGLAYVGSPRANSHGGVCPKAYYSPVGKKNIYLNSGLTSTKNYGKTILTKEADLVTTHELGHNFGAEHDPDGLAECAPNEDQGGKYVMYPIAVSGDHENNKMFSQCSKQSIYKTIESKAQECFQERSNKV

Molecular target: recombinant human TACE catalytic domain (rhTACEc) (Homo sapiens (Human), UniProt P78536, N452Q/S266A)
Test: TACE kinetic FRET assay (cleavage of internally quenched peptide substrate TNF-FRET 2), Ki
[1] = recombinant human TACE catalytic domain, FRET assay

Ki [1]	Ki (TACE)	SMILES	further results
0.25 nM	–	COc1ccc2c(c1)C(=O)N(C[C@@]1(C#Cc3ccc4[nH]nc(N)c4c3)NC(=O)NC1=O)C2 [Compound 2237]	–
0.259 nM	–	COc1ccc2c(c1)C(=O)N(C[C@@]1(C#Cc3ccc4c(O)nn(C)c4c3)NC(=O)NC1=O)C2 [Compound 715]	–
0.0781 nM	–	COc1ccc2c(c1F)C(=O)N(C[C@@]1(C#Cc3ccc(-c4nc(-c5cccnc5)ccc4O)cc3)NC(=O)NC1=O)C2 [Compound 1001]	–
–	0.62 nM	COc1ccc2c(c1)C(=O)N(C[C@@]1(C#Cc3ccc(-c4cn[nH]c4N)cc3)NC(=O)NC1=O)C2 [Compound 2296]	–
–	0.68 nM	C#C[C@]1(CN2Cc3ccc(OC)c(F)c3C2=O)NC(=O)NC1=O [Compound 23]	–
501 nM	–	Cn1cc(-c2ccc3c(c2)C(=O)N(C[C@]2(C#Cc4cccnc4)NC(=O)NC2=O)C3)cn1 [Compound 310]	–
46300 nM	–	COc1ccc2c(c1F)C(=O)N(C[C@]1(C#Cc3ccc(CN4CCN(C5CCCCC5)CC4)cc3)NC(=O)NC1=O)C2 [Compound 985]	–
0.0556 nM	–	COc1ccc2c(c1)C(=O)N(C[C@@]1(C#Cc3ccc(-c4nc(-c5ccncc5)ccc4O)cc3)NC(=O)NC1=O)C2 [Compound 970]	–
1.02 nM	–	COc1ccc2c(c1)C(=O)N(C[C@@]1(C#Cc3ccc(N(c4cccnc4)C4CCNCC4)nc3)NC(=O)NC1=O)C2 [Compound 2200]	–
0.29 nM	–	CCNc1nnc(-c2ccc(C#C[C@]3(CN4Cc5ccc(OC)cc5C4=O)NC(=O)NC3=O)cc2)o1 [Compound 1920]	–
0.0762 nM	–	COc1ccc2c(c1)C(=O)N(C[C@@]1(C#Cc3ccc(-c4ncccc4OC(=O)C(C)(C)C)cc3)NC(=O)NC1=O)C2 [Compound 1008]	–
–	0.57 nM	COC(=O)C(c1ccc(C#C[C@]2(CN3Cc4ccc(OC)cc4C3=O)NC(=O)NC2=O)cc1)N1CCCNCC1 (stereo partly drawn) [Compound 2271]	–
–	–	CCN1CCN(C(=NO)c2ccc(C#C[C@]3(CN4CCc5cc(OC)ccc5C4=O)NC(=O)NC3=O)cc2)CC1 [Compound 2316]	Ki: 0.27 nM
0.652 nM	–	CCN1CCN(Cc2ccc(C#C[C@]3(CN4Cc5ccc(OC)c(F)c5C4=O)NC(=O)NC3=O)cc2F)CC1 [Compound 983]	–
0.94 nM	–	COc1ccc2c(c1)C(=O)N(C[C@@]1(C#Cc3cncc(-c4ccc(C(N)=O)cc4)c3)NC(=O)NC1=O)C2 [Compound 2208]	–
3.54 nM	–	COc1ccc2c(c1)C(=O)N(C[C@@]1(C#Cc3ccc(-c4cccc(C)c4O)nc3)NC(=O)NC1=O)C2 [Compound 1300]	–
0.512 nM	–	COc1ccc2c(c1)C(=O)N(C[C@@]1(C#Cc3ccc(-n4cncn4)cc3)NC(=O)NC1=O)C2 [Compound 2228]	–
–	1.1 nM	COc1ccc2c(c1)C(=O)N(CC1(C#Cc3cnc(N4CCC5(CC4)NC(=O)NC5=O)nc3N)NC(=O)NC1=O)C2 (stereo not drawn) [Compound 2310]	–
0.19 nM	–	COc1ccc2c(c1)C(=O)N(C[C@@]1(C#Cc3ccc([C@@]4(CN5Cc6ccc(OC)cc6C5=O)NC(=O)NC4=O)cc3)NC(=O)NC1=O)C2 [Compound 2217]	–
–	1.67 nM	COc1ccc2c(c1)C(=O)N(C[C@@]1(C#Cc3ccc(C(=O)NS(C)(=O)=O)nc3)NC(=O)NC1=O)C2 [Compound 902]	–
0.93 nM	–	COc1ccc2c(c1)C(=O)N(C[C@@]1(C#Cc3nc(-c4cnc(N(C)C)nc4)ccc3OC)NC(=O)NC1=O)C2 [Compound 1510]	–
–	0.68 nM	COc1ccc2c(c1)C(=O)N(C[C@@]1(C#Cc3ccc(N4CCCCC4=O)cc3)NC(=O)NC1=O)C2 [Compound 2295]	–

Ki [1]	Ki (TACE)	SMILES	further results
–	0.3 nM	CNC(=O)C1(c2ccc(C#C[C@]3(CN4Cc5ccc(OC)cc5C4=O)NC(=O)NC3=O)cc2)CC1 [Compound 2261]	–
0.2 nM	–	COc1ccc2c(c1F)C(=O)N(C[C@@]1(C#Cc3cc(F)cnc3Cl)NC(=O)NC1=O)C2 [Compound 1312]	–
–	0.21 nM	COc1ccc2c(c1)C(=O)N(C[C@@]1(C#Cc3ccc(C4(C)NC(=O)NC4=S)cc3)NC(=O)NC1=O)C2 (stereo partly drawn) [Compound 2258]	–
–	0.48 nM	COc1ccc2c(c1)CCN(C[C@@]1(C#Cc3ccc(C(=NO)N4CCCN(C)CC4)cc3)NC(=O)NC1=O)C2=O [Compound 2317]	–
0.382 nM	–	COc1ccc2c(c1)C(=O)N(C[C@@]1(C#Cc3ccc(C(=O)N4CCN(C5CC5)CC4)cc3)NC(=O)NC1=O)C2 [Compound 961]	–
–	0.534 nM	COc1ccc2c(c1)C(=O)N(C[C@@]1(C#Cc3cncc(C(=O)NN)c3)NC(=O)NC1=O)C2 [Compound 2255]	–
–	32.6 nM	COc1ccc2c(c1)C(=O)N(C[C@]1(C#Cc3cncc(C(=O)NN)c3)NC(=O)NC1=O)C2 [Compound 2256]	–
1.2 nM	–	CCN1CCN(C(=O)C2CC(=O)N(c3ccc(C#C[C@]4(CN5Cc6ccc(OC)cc6C5=O)NC(=O)NC4=O)cc3)C2)CC1 (stereo partly drawn) [Compound 1319]	–
0.437 nM	–	COc1ccc2c(c1F)C(=O)N(C[C@@]1(C#Cc3ccc(CN4CCOCC4)nc3)NC(=O)NC1=O)C2 [Compound 965]	–
–	0.19 nM	COc1ccc2c(c1)C(=O)N(C[C@@]1(C#Cc3cccnc3N3CCOCC3)NC(=O)NC1=O)C2 [Compound 2287]	–
0.15 nM	–	COc1ccc2c(c1)C(=O)N(C[C@@]1(C#Cc3cncc(-c4csc(N)n4)c3)NC(=O)NC1=O)C2 [Compound 2233]	–
0.91 nM	–	COc1ccc2c(c1)C(=O)N(C[C@@]1(C#Cc3c(C)ncc(C(=O)O)c3O)NC(=O)NC1=O)C2 [Compound 2232]	–
0.349 nM	–	COc1ccc2c(c1F)C(=O)N(C[C@@]1(C#Cc3ccc4c(=O)[nH][nH]c4c3)NC(=O)NC1=O)C2 [Compound 301]	–
–	0.24 nM	COc1ccc2c(c1)C(=O)N(C[C@@]1(C#Cc3ccc(C(=NO)N4CCCN(C)CC4)cc3)NC(=O)NC1=O)C2 [Compound 913]	–
0.0521 nM	–	COc1ccc2c(c1)C(=O)N(C[C@@]1(C#Cc3cc(F)c4c(O)n[nH]c4c3)NC(=O)NC1=O)C2 [Compound 302]	–
0.58 nM	–	COc1ccc2c(c1)C(=O)N(C[C@@]1(C#Cc3ccc(C(c4ccc[nH]4)c4ccc[nH]4)cc3)NC(=O)NC1=O)C2 [Compound 2201]	–
0.408 nM	–	COc1ccc2c(c1)C(=O)N(C[C@@]1(C#Cc3ccc(C(O)C4CCN(C)CC4)cc3)NC(=O)NC1=O)C2 (stereo partly drawn) [Compound 500]	–
–	–	CCN1CCN(C(=NO)c2cncc(C#C[C@]3(CN4Cc5ccc(OC)cc5C4=O)NC(=O)NC3=O)c2)CC1 [Compound 923]	Ki: 0.39 nM
–	0.46 nM	COc1ccc2c(c1)C(=O)N(C[C@@]1(C#Cc3ccc4c(c3)C(C)Oc3cccnc3-4)NC(=O)NC1=O)C2 (stereo partly drawn) [Compound 929]	–
–	0.66 nM	COc1ccc2c(c1)C(=O)N(CC1(C#Cc3cccnc3N3CCN(C)CC3)NC(=O)NC1=O)C2 (stereo not drawn) [Compound 2285]	–
0.373 nM	–	COc1ccc2c(c1)C(=O)N(C[C@@]1(C#Cc3cncc(-c4ccc(C(N)=O)o4)c3)NC(=O)NC1=O)C2 [Compound 2213]	–
0.51 nM	–	COc1ccc2c(c1)C(=O)N(C[C@@]1(C#Cc3ccc(-n4cncn4)cc3)NC(=O)NC1=O)C2 [Compound 1170]	–

Ki [1]	Ki (TACE)	SMILES	further results
0.33 nM	–	COc1ccc2c(c1)C(=O)N(C[C@@]1(C#Cc3ccc(N4CCNC4=O)cc3)NC(=O)NC1=O)C2 [Compound 1150]	–
–	–	COc1ccc2c(c1F)C(=O)N(C[C@@]1(C#Cc3ccc(/C(=N/O)N4CCNC[C@@H]4C)c(F)c3)NC(=O)NC1=O)C2 [Compound 1309]	Ki: 0.19 nM
0.527 nM	–	COc1ccc2c(c1F)C(=O)N(C[C@@]1(C#Cc3ccc(CN4CCSCC4)nc3)NC(=O)NC1=O)C2 [Compound 966]	–
1.53 nM	–	COc1ccc2c(c1)C(=O)N(C[C@@]1(C#Cc3nc(N4C(=O)CCC4C)ccc3OC)NC(=O)NC1=O)C2 (stereo partly drawn) [Compound 1506]	–
0.77 nM	–	COc1ccc2c(c1F)C(=O)N(C[C@@]1(C#Cc3ccc(CN4CCN(c5ccncc5)CC4)nc3)NC(=O)NC1=O)C2 [Compound 979]	–
0.25 nM	–	COc1ccc2c(c1)C(=O)N(C[C@@]1(C#Cc3ccc(CCNC(=O)C(F)(F)F)s3)NC(=O)NC1=O)C2 [Compound 2221]	–
–	0.83 nM	COc1ccc2c(c1)C(=O)N(CC1(C#Cc3cccnc3NCCN(C)C)NC(=O)NC1=O)C2 (stereo not drawn) [Compound 2286]	–
0.419 nM	–	COc1ccc2c(c1)C(=O)N(C[C@@]1(C#Cc3ccc(-c4cc(N)[nH]n4)cc3)NC(=O)NC1=O)C2 [Compound 747]	–
–	–	COc1ccc2c(c1)CCN(C[C@@]1(C#Cc3ccc4c(c3)CCCC43NC(=O)NC3=O)NC(=O)NC1=O)C2=O (stereo partly drawn) [Compound 2321]	Ki: 0.52 nM
0.31 nM	–	COc1ccc2c(c1F)C(=O)N(C[C@@]1(C#Cc3ccc4c(c3)CN(C)C(=O)N4)NC(=O)NC1=O)C2 [Compound 307]	–
–	–	COc1ccc2c(c1)C(=O)N(C[C@@]1(C#Cc3ccc(C(=NO)N4CCN(c5ccccc5)CC4)cc3)NC(=O)NC1=O)C2 [Compound 928]	Ki: 0.15 nM
–	–	COc1ccc2c(c1)C(=O)N(C[C@@]1(C#Cc3ccc(C(=NO)N4CCCC4)cc3)NC(=O)NC1=O)C2 [Compound 942]	Ki: 0.19 nM
–	–	COc1ccc2c(c1)CCN(C[C@@]1(C#Cc3ccc(C(=NO)N4CCN(C)CC4)cc3)NC(=O)NC1=O)C2=O [Compound 2320]	Ki: 0.24 nM
3.45 nM	–	COc1ccc2c(c1)C(=O)N(C[C@@]1(C#Cc3ccc(-c4cccc(N5CCSCC5)n4)cc3)NC(=O)NC1=O)C2 [Compound 998]	–
–	0.19 nM	COc1ccc2c(c1F)C(=O)N(C[C@@]1(C#Cc3cccnc3C)NC(=O)NC1=O)C2 [Compound 2273]	–
–	–	COc1ccc2c(c1)C(=O)N(C[C@@]1(C#Cc3cccc(C(=NO)N4CCOCC4)c3)NC(=O)NC1=O)C2 [Compound 916]	Ki: 0.18 nM
–	0.19 nM	COc1ccc2c(c1)C(=O)N(C[C@@]1(C#Cc3ccc(C(=NO)N4CCCN(C(C)C)CC4)cc3)NC(=O)NC1=O)C2 [Compound 931]	–
–	0.27 nM	COc1ccc2c(c1)C(=O)N(C[C@@]1(C#Cc3ccc(C(=NO)N4CCC4)cc3)NC(=O)NC1=O)C2 [Compound 914]	–
–	0.32 nM	CCN1CCN(C(CO)c2ccc(C#C[C@]3(CN4Cc5ccc(OC)cc5C4=O)NC(=O)NC3=O)cc2)CC1 (stereo partly drawn) [Compound 930]	–
0.47 nM	–	COc1ccc2c(c1)C(=O)N(C[C@@]1(C#Cc3ccc(CC4CCN(C)CC4)nc3)NC(=O)NC1=O)C2 [Compound 739]	–
–	–	CCN1CCN(C(=NO)c2ccc(C#C[C@]3(CN4Cc5ccc(OC)cc5C4=O)NC(=O)NC3=O)cc2)CC1 [Compound 911]	Ki: 0.16 nM
0.0651 nM	–	COc1ccc2c(c1)C(=O)N(C[C@@]1(C#Cc3ccc(-c4nc(-c5cccnc5)ccc4O)cc3)NC(=O)NC1=O)C2 [Compound 971]	–
